This experiment has as its target Transcription factor p65 (Human, UniProt Q04206). In words: Inhibition of TNF alpha stimulated NF-KappaB p65 in human HeLa nuclear extract assessed as decrease in NF-KappaB translocation to nucleus measured after 5 hrs by ELISA. An outline of the steps:
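Cells treated with four concentrations (0.05–50 μM) plus TNF-α for 5 h; nuclear extracts prepared and NF-κB p65 translocation to nucleus read as absorbance in an ELISA format; IC50 by non-linear curve fitting.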
Background: ELISA stands for enzyme-linked immunosorbent assay.

Sequences of proteins named here, by UniProt entry; tags and fusion partners are left off.
UniProt Q04206, whole entry: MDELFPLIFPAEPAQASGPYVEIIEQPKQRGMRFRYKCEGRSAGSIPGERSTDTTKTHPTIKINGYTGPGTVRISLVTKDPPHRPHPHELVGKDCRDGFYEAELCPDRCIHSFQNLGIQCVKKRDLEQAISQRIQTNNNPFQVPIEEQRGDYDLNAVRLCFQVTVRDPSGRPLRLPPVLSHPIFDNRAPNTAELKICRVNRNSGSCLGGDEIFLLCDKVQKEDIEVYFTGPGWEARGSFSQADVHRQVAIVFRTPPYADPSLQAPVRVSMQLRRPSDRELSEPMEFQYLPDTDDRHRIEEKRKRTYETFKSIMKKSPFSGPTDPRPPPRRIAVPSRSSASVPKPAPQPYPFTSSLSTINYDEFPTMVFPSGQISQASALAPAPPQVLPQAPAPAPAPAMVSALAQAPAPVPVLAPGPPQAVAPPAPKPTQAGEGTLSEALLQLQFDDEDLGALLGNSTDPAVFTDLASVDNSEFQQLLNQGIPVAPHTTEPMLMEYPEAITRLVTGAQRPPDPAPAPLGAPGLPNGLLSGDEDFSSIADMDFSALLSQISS

As usually defined, the IC50 is the concentration needed to halve the response being measured. As to `COc1ccc([C@@]23Oc4cc(OC)cc(OC)c4[C@]2(O)[C@H](O)[C@H](C(=O)N(C)C)[C@H]3c2ccccc2)cc1` [Rocaglamide], the 50% inhibitory concentration (IC50) stood at 120 nM.

Values taken from BindingDB's records for doi:10.1021/acs.jnatprod.9b00140 (University of Illinois At Chicago, 2019).
